These are literature values, as cited in article PMC5744648.

Protein sequences, listed by entry. Tags and fused reporters are not part of them. Lines headed by an entry give the natural chain unless they say otherwise; changes in a name come on top.
UniProt Q99788: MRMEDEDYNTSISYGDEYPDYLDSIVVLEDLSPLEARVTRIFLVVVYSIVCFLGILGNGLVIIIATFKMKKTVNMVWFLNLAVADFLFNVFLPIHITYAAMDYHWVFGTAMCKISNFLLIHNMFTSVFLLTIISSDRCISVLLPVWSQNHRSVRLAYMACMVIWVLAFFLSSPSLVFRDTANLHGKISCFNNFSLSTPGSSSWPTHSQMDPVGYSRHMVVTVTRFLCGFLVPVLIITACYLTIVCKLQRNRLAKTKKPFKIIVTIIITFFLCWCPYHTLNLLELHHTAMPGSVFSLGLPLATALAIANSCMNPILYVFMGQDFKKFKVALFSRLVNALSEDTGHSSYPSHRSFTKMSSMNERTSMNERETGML

For orientation: Kd means a measure of binding affinity in units of concentration.

In this series the target is CMKLR1 (Chemerin1) (Homo sapiens) (UniProt Q99788). The experiment in a line: fluorescent ligand cell binding.

Turning to “Amyloid-beta 42 672-713 (from UniProt P05067)”, the dissociation constant (Kd) was 800 nM.
